# Laboratory results from paper PMC2693926.
# Several values for one entry are separate records, joined by “and”; a condition that tells them apart may be missing. Identical values can stand only once.
# Target: sarin^nonaged-hAChE (Homo sapiens, UniProt P22303)
# Experiment: Reactivation kinetics of sarin-inhibited hAChE (discontinuous method)
compound,measurement,setting,value
NC(=O)c1cc[n+](CCC[n+]2ccc(/C=N/O)cc2)cc1.[Br-].[Br-],reactivation effectiveness compared with HI-6,,less effective
same,kr hAChE Sarin,"mean±S.D. of 2–4 determinations, buffer condition as reported in [8]",0.054 min^−1 and 0.054±0.011 ^c min^−1
